According to patent publication US20060084085A1 (published 2006):
Each block holds one binder with its values, some of them ahead of it.

Tests used:
human p300 = biological target: T1, human p300 (human, UniProt Q09472); assay: co-immunoprecipitation from HeLa or 293 cells
T1 construct: also called hup300

[1] = biological target: T2, human CREB-binding protein (CBP) (human, UniProt Q92793); assay: co-immunoprecipitation from HeLa or 293 cells
T2 construct: also called huCBP; native CBP

binding result (human p300): no binding
B1: human Ku70 (wild-type, full-length) (other)
chain: MSGWESYYKTEGDEEAEEEQEENLEASGDYKYSGRDSLIFLVDASKAMFESQSEDELTPFDMSIQCIQSVYISKIISSDRDLLAVVFYGTEKDKNSVNFKNIYVLQELDNPGAKRILELDQFKGQQGQKRFQDMMGHGSDYSLSEVLWVCANLFSDVQFKMSHKRIMLFTNEDNPHGNDSAKASRARTKAGDLRDTGIFLDLMHLKKPGGFDISLFYRDIISIAEDEDLRVHFEESSKLEDLLRKVRAKETRKRALSRLKLKLNKDIVISVGIYNLVQKALKPPPIKLYRETNEPVKTKTRTFNTSTGGLLLPSDTKRSQIYGSRQIILEKEETEELKRFDDPGLMLMGFKPLVLLKKHHYLRPSLFVYPEESLVIGSSTLFSALLIKCLEKEVAALCRYTPRRNIPPYFVALVPQEEELDDQKIQVTPPGFQLVFLPFADDKRKMPFTEKIMATPEQVGKMKAIVEKLRFTYRSDSFENPVLQQHFRNLEALALDLMEPEQAVDLTLPKVEAMNKRLGSLVDEFKELVYPPDYNPEGKVTKRKHDNEGSGSKRPKVEYSEEELKTHISKGTLGKFTVPMLKEACRAYGLKSGLKKQELLEALTKHFQD
notes: also called huKu70; native Ku70

binding result [1]: no binding
B2: Ku80 (other, human, UniProt P13010 2-732, looked up)
chain: VRSGNKAAVVLCMDVGFTMSNSIPGIESPFEQAKKVITMFVQRQVFAENKDEIALVLFGTDGTDNPLSGGDQYQNITVHRHLMLPDFDLLEDIESKIQPGSQQADFLDALIVSMDVIQHETIGKKFEKRHIEIFTDLSSRFSKSQLDIIIHSLKKCDISLQFFLPFSLGKEDGSGDRGDGPFRLGGHGPSFPLKGITEQQKEGLEIVKMVMISLEGEDGLDEIYSFSESLRKLCVFKKIERHSIHWPCRLTIGSNLSIRIAAYKSILQERVKKTWTVVDAKTLKKEDIQKETVYCLNDDDETEVLKEDIIQGFRYGSDIVPFSKVDEEQMKYKSEGKCFSVLGFCKSSQVQRRFFMGNQVLKVFAARDDEAAAVALSSLIHALDDLDMVAIVRYAYDKRANPQVGVAFPHIKHNYECLVYVQLPFMEDLRQYMFSSLKNSKKYAPTEAQLNAVDALIDSMSLAKKDEKTDTLEDLFPTTKIPNPRFQRLFQCLLHRALHPREPLPPIQQHIWNMLNPPAEVTTKSQIPLSKIKTLFPLIEAKKKDQVTAQEIFQDNHEDGPTAKKLKTEQGGAHFSVSSLAEGSVTSVGSVNPAENFRVLVKQKKASFEEASNQLINHIEQFLDTNETPYFMKSIDCIRAFREEAIKFSEEQRFNNFLKALQEKVEIKQLNHFWEIVVQDGITLITKEEASGSSVTAEEAKKFLAPKDKPSGDTAAVFEEGGDVDDLLDMI
notes: Endogenous Ku80
